Here are results for one sequence from patent US20140161767A1, “FOLLICLE-STIMULATING HORMONE (FSH)/LYTIC DOMAIN FUSION CONSTRUCTS AND METHODS OF MAKING AND USING SAME” (BOARD OF SUPERVISORS OF LOUISIANA STATE UNIVERSITY AND …, priority 2012, published 2014).

One data set deals with human red blood cells. Description: Acute hemolytic activity on human red blood cells. The format is cell-based. Conditions: expressed as HA. On the procedure:
Acute hemolytic activities for 21 fusion constructs including Phor18-Lupron and D-ala-Phor18-LHRH, were studied.
Hemolytic activity was determined in 96 well plates using a serial dilution of peptides exposed to 0.5% human RBC. Controls were saline (no RBC death) or 0.1% Triton X 100 (100% RBC lysis). The peptide concentrations ranged from 0 to 100 μM. Incubations were conducted for 2 h.

The nature of data set [1]: Maximum tolerated dose (MTD) and safety margin. The format is in vivo. Conditions: injected dose resulting in 66.6% survival (acute and 8-14 days post injection). On the procedure: The fusion conjugates have a high safety margin considering parameters such as hemolytic activity, maximum tolerated dose (MTD) (up to 16-25 mg/kg) in comparison with the anti-tumor effective dose (0.02 or 0.01 mg/kg). The safety margin for Phor21-βCG-ala is 16 whereas a value of 800 can be reached for Phor18-βCG-ala and Phor18-LHRH. In comparison the safety margin for Phor18-Lupron is only 8.
4) Injected dose resulting in 66.6% survival (acute and 8-14 days post injection).

Another data set relates to MDA-MB-435S xenograft. Description: MDA-MB-435S xenograft, multiple dose regimen. The format is in vivo, mice. As to conditions: entire study period. The procedure:
In order to determine the minimal effective dose necessary to reduce MDA-MB-435S xenograft weights in a multiple dose regimen, Nu/Nu female mice, outbred strain, age 8 weeks (Charles River), were injected (s.c.) into the interscapular region with a MDA-MB-435S (passage #253)/Matrigel suspension (2×10^6 cells/mouse) as previously described above. Phor18-LHRH (338613) (ID: 338613 lot# P080401) (0.002, and 0.2 mg/kg) were reconstituted in USP saline prior to dosing. The doses were given as a single bolus intravenous injection via lateral tail vein on days 15, 16, 17, 20, 21, 22, 23, 27, 28, 29, 30, 33, 34, 35, 36, 37, 38, 40, 41, 42 after tumor cell inoculation. Saline injections served as control groups.
Each treatment group consisted of 16 mice. During the entire study tumor volumes were recorded twice weekly. Final necropsy was conducted on day 45 after tumor cell injection. […] due to occlusion of the tail vein in most mice. At study endpoint body weight, tumor weights were determined and fixed in phosphate buffered 10% formalin.

The test system of another data set is OVCAR-3 xenograft. Put plainly: OVCAR-3 ovarian cancer xenograft. It is filed as in vivo. As to conditions: 2 mg/kg dose; procedural, not related to treatment. On the procedure: To determine the efficacy of Phor18-LHRH (338613) on ovarian cancer xenografts that resemble the human disease, single and multiple dose studies were conducted. The xenograft model of the OVCAR-3 human ovarian cancer cell line that present functional LHRH receptors was used in this study. OVCAR-3 represents a slow growing xenograft model and secretes the tumor marker (cancer antigen 125, or CA125). It's secretion can be used as treatment response and is a measure of drug activity. […]
A group of 9 tumor bearing mice was sacrificed on day 33 and served as baseline group. […] Tumor volumes and bodyweights were recorded twice weekly during the study, as well as overall veterinarian examination of mice was conducted.
Primary tumors, liver, kidney, pancreas, heart, lung, and spleen were collected, fixed in formalin and prepared for histological evaluation. Tumor weights were measured at necropsy, part of the tumors were frozen at −80° C. for LH/CG and LHRH receptor assay determination.
As a biomarker for drug activity, CA125 was determined in serum, collected from each individual mouse at necropsy using a Enzyme Linked Immunoassay for quantitative determination of ovarian cancer antigen CA125 (Assay kit Genway, Biotech, Inc. San Diego, Calif., Catalog #40-052-115009, # BC-1013 according to the manufacturer).
LHRH receptor levels were assessed from formalin fixed tumors. […]

Regarding “KFAKFAKKFAKFAKKFAKQHWSYGLRPG [Phor18-LHRH]”, the “Hemolytic Activity” value with human red blood cells stood at 297 µM. In addition, the MTD in data set [1] is given as 16 mg/kg. Further, in the data set with MDA-MB-435S xenograft, the Bodyweights entry is “not affected”. Also, the Deaths at injection entry in the data set on OVCAR-3 xenograft was “One mouse died during the first injection”.

As usually defined, the MTD is the highest dose tested that stayed within the study's limit of toxicity. Read a high MTD as a wide tolerated range.
